Assay results taken from PubChem BioAssay AID1777 (Sanford-Burnham Center for Chemical Genomics, 2009).
The list shows a part of the results, in another mix than the full data. Entries with a potency or affinity are not part of this list. Active and inactive are the calls of the source. Rule as the data show it: active = activation above about 50% (passing the limit was not always enough); inactive = the rest.

Protein sequences, listed by entry. Tags and fused reporters are not part of them.
UniProt P41145, whole entry: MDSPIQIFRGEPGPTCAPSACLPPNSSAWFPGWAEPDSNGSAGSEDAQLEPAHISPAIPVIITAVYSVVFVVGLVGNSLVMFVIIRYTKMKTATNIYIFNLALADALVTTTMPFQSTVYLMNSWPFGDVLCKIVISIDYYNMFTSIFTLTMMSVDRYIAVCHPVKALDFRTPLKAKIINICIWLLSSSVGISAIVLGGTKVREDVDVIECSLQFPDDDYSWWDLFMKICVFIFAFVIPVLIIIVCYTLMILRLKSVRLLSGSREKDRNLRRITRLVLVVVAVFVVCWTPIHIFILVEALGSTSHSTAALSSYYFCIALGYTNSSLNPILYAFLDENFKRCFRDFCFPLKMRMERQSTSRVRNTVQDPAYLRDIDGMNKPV

What follows are molecules tested against Kappa-type opioid receptor (Homo sapiens) (UniProt P41145) (assay: kappa opioid receptor activators – cell-based, luminescence, uHTS, primary screen (AID 1777)). Conditions: KOR beta-arrestin recruitment, at 10 µM, active compounds read high.

SMILES	activation
Cc1cc(C)cc(OP(C)(=O)Nc2ccc(SC(F)(F)F)cc2)c1 (configuration not stated)	inactive: -0.4%
Cc1cccc(C)c1OP(C)(=O)Nc1ccc(SC(F)(F)F)cc1 (configuration not stated)	inactive: 0.4%
CP(=O)(Nc1ccc(SC(F)(F)F)cc1)Oc1ccc(Cl)cc1 (configuration not stated)	inactive: 1.8%
CP(=O)(Oc1ccccc1)OC(c1ccccc1)C(F)(F)F (configuration not stated)	inactive: -10.1%
Cc1nc2ccc3ccccc3c2s1.O=[N+]([O-])c1cc([N+](=O)[O-])c(O)c([N+](=O)[O-])c1	inactive: -1.3%
O=[N+]([O-])c1cc([N+](=O)[O-])c(-n2nnc3ccccc32)c([N+](=O)[O-])c1	inactive: -7.9%
CCCOc1ccc(NP(C)(=O)Oc2ccc(Cl)cc2)cc1 (configuration not stated)	inactive: -5.5%
CP(=O)(Nc1ccc(SC(F)(F)F)cc1)Oc1ccccc1 (configuration not stated)	inactive: 0.6%
COc1ccccc1OP(C)(=O)Nc1c(C)cccc1C (configuration not stated)	inactive: -0.1%
CN1CCCCC1COC(=O)C1(O)c2ccccc2CCc2ccccc21 (configuration not stated)	inactive: -0.9%
CN(C)C1(CNC(=O)c2ccc(S(C)(=O)=O)cc2)CCCCC1	inactive: -1.4%
O=[N+]([O-])c1cc([N+](=O)[O-])c(Nc2nnnn2CCO)c([N+](=O)[O-])c1	inactive: 0.8%
CCOC(=O)C(CC)C1=NC(C)(C)Cc2ccccc21.O=[N+]([O-])c1cc([N+](=O)[O-])c(O)c([N+](=O)[O-])c1 (configuration not stated)	inactive: -4.3%
CC1=NCCc2c1[nH]c1ccccc21.O=[N+]([O-])c1cc([N+](=O)[O-])c(O)c([N+](=O)[O-])c1	inactive: -0.2%
O=C(O)c1cccc(Nc2c([N+](=O)[O-])cc([N+](=O)[O-])cc2[N+](=O)[O-])c1	inactive: -0.6%
Cc1cc(C)cc(OP(C)(=O)Nc2ccccn2)c1 (configuration not stated)	inactive: -3.8%
CP(=O)(Nc1cccc(Br)c1)Oc1ccccc1 (configuration not stated)	inactive: 3%
Cc1ccc(C)c(NP(C)(=O)Oc2ccccc2)c1 (configuration not stated)	inactive: 3.8%
Cc1cc(C)cc(OP(C)(=O)Nc2ccc(C)cc2C)c1 (configuration not stated)	inactive: 10.1%
CCOC(=O)c1ccc(NP(C)(=O)Oc2cc(C)cc(C)c2)cc1 (configuration not stated)	inactive: 3%
COc1cc(C(=O)NCC2(N3CCOCC3)CCCCC2)cc(Cl)c1OC(C)C	inactive: -0.1%
COc1ccccc1OP(C)(=O)Nc1cccc(Br)c1 (configuration not stated)	inactive: -3.5%
